# AlphaSeq binding of Ab-91 heavy chain variants to a spike HR2 peptide

All variants were tested on one target, the spike HR2 peptide PDVDLGDISGINAS (SARS-CoV-2).

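The parent was found by panning a naive human phage display library on the peptide. Variants in AAYL51 differ from the parent at up to three CDR positions; double and triple changes were sampled at random. AlphaSeq pools MATa yeast showing the antibodies with MATalpha yeast showing the peptide. The frequency of each diploid, read from paired DNA barcodes, reflects how well the two displayed proteins bind. The ratio of observed to expected reads was calibrated, replicate by replicate, on BCL2-family standards whose Kd was known from biolayer interferometry. The assay was run in three technical replicates.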

Each scFv is VL, three GGGGS repeats, VH, as in the parent Ab-91, and differs from it in the CDRs of the heavy chain only.
VL: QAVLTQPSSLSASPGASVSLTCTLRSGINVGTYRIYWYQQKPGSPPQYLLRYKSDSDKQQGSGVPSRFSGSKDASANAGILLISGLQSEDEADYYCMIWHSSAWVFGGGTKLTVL
VH: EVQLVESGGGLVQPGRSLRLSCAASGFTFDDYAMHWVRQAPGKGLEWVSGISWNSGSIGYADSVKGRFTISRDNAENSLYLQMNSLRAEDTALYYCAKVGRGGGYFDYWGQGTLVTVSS

Changes read parent residue, position, new residue, counted from the first residue of the VH shown. Scale: log10 of Kd in nM, estimated from mating counts; low values are strong binders. "n.d." means that the variant was in the library but no mating with the target was seen in that replicate; the authors take this as a sign of poor binding, and no number exists. Background: pairings of library AAYL51 with three empty control strains gave a value in 21% of cases (median 4.54, 5th percentile 3.26). Values in that range, when seen in few replicates, are hard to tell from nonspecific mating. Also given: how often the same scFv was detected with the empty control strains, with their mean in brackets. For reference, the parent read 1.86 as the reference entry and 0.88 as a member of this library.

changes | log10 Kd, replicates | signal with controls
F27Q+I58L+K65E | 2.08 / 1.71 / 1.66 | 4 of 9 (4.66)
D30E+G56T+R101S | 2.70 / 3.12 / 2.65 | 1 of 9 (4.63)
G26L+A61L+D107M | n.d. / 4.24 / 3.65 | 0 of 9
G26L+Y32R+A33M | 1.57 / 1.21 / 1.18 | 0 of 9
H35N+G50W+S55K | n.d. / 3.88 / 4.43 | 4 of 9 (4.11)
W53S+A61R+K65E | n.d. / n.d. / n.d. | 1 of 9 (3.82)
F27G+G59T+G100C | n.d. / n.d. / n.d. | 0 of 9
M34E+S63I+K65S | n.d. / 5.02 / n.d. | 2 of 9 (4.58)
N54G+I58M+G59H | 4.31 / n.d. / n.d. | 1 of 9 (4.02)
G102N+G103M+Y108L | 3.56 / n.d. / n.d. | 0 of 9
Y32I+S52C+N54A | n.d. / 5.47 / n.d. | 0 of 9
F27R+G102C+D107E | n.d. / n.d. / n.d. | 0 of 9
G50Y+I51C+Y60S | n.d. / n.d. / n.d. | 0 of 9
F27V+Y60I+K65D | 4.38 / 4.80 / 4.66 | 8 of 9 (4.48)
Y60D+S63G+R101H | n.d. / n.d. / n.d. | 0 of 9
Y60A+D62R+S63Q | 3.58 / 4.37 / n.d. | 4 of 9 (3.78)
S57T+A61K+R101W | n.d. / 2.92 / n.d. | 0 of 9
G103C+G104M+Y105T | 2.85 / 3.48 / 3.65 | 6 of 9 (4.92)
S52A+G100A+D107V | 4.49 / n.d. / n.d. | 2 of 9 (5.30)
D31T+G56E | 1.55 / 1.46 / 1.09 | 3 of 9 (4.62)
S52R+Y60N+G104N | n.d. / n.d. / n.d. | 0 of 9
G26Y | 1.76 / 1.94 / 1.97 | 2 of 9 (4.66)
F29E+M34F+S55K | n.d. / n.d. / 3.25 | 0 of 9
A33S+M34E+G50A | 5.39 / 4.86 / n.d. | 1 of 9 (4.01)
M34H+I51E+R101C | n.d. / n.d. / n.d. | 0 of 9
I51V+W53R+A61S | n.d. / n.d. / n.d. | 0 of 9
A33S+S55C+F106Q | 3.83 / 5.42 / n.d. | 2 of 9 (4.02)
W53M+A61Q+V64T | n.d. / n.d. / n.d. | 0 of 9
T28Q+N54I+V99F | 4.63 / 4.20 / n.d. | 1 of 9 (4.98)
I58F+A61S+S63H | n.d. / n.d. / n.d. | 0 of 9
F27Y+I58H | n.d. / n.d. / n.d. | 0 of 9
D31G+G59C+R101E | n.d. / 5.40 / n.d. | 2 of 9 (4.13)
M34R+I58C+S63T | n.d. / n.d. / n.d. | 2 of 9 (3.79)
S55D+D62R+G103K | 4.73 / 6.64 / n.d. | 6 of 9 (4.88)

The measurements come from Engelhart et al. 2022 (doi:10.1038/s41597-022-01779-4) through the FLAb antibody collection.